Tests used:
[1] = test system: primary human hepatocytes
[2] = test system: primary human hepatocytes; test: RNA-seq of primary human hepatocytes treated with 39 small molecules (pilot and validation); details: for significant modulation of gene expression: RNA-seq, p-value≤0.05, primary human hepatocytes, the modulated genes are listed in the block
TF1 cells = test: Biological activity of maximal compound dosages in TF1 cells; assay type: cell-based; details: 10 μM dose, DMSO = 1.00
Protocol: (§1) The stock for each compound was at 10 mM and were diluted to 100 μM with RMPI+GCMSF (2% DMSO). Cells were collected and resuspended in 8 mL of RPMI+GMCSF at a concentration of 1×10^6 cells/mL. For the TF1 cells, at each well of a 6-well plate were added 1 mL of cells, 300 μL of 100 μM compound dilution, and 1.7 mL of RMPI+GCMSF+1.5% DMSO (1% final DMSO concentration in 3 mL total). One mL of the CI-CB-CD34+ cells, 300 μL of 100 μM compound dilution, and 700 μL of RMPI+GCMSF ([…]) were added to each well of a 6-well plate.
(§2) Compound dilutions were performed as described in Example 1. […] In a 6-well format, there were 1 million cells/well=1 million cells/ml=1000 cells/pl. […].

CI-CB-CD34+ cells = test: Biological activity of maximal compound dosages in CI-CB-CD34+ cells; assay type: cell-based, human; details: 10 μM dose, DMSO = 1.00
Protocol: as §1, §2

hepatocytes = details: log 2 fold change in CYP2C19 gene expression, RNA-seq

Row | Molecule | significant modulation of gene expression [2] | Fold changes in cell viability (TF1 cells) | Fold changes in cell viability (CI-CB-CD34+ cells) | also measured
1 | CN(C)C(=N)N=C(N)N [MT-117, Metformin] | significantly (p-value≤0.05) modulate | – | – | Log2 fold changes in gene expression: CYP2C19 [1]: −0.03; Log2 fold changes in gene expression: CYP3A4 [1]: 0
2 | Cc1ccc(-c2cn3c4c(sc3n2)CCCC4)cc1 [Cyclic-pifithrin alpha, Cyclic Pifithrin-a] | – | 1.12 | 1.17 | –
3 | Cc1ccc(C(=O)Cn2c3c(sc2=N)CCCC3)cc1 [Pifithrin alpha, Pifithrin-α] | – | 1.23 | 1.08 | –
4 | CO[C@H]1/C=C/O[C@@]2(C)Oc3c(C)c(O)c4c(O)c(c(/C=N/N5CCN(C)CC5)c(O)c4c3C2=O)NC(=O)/C(C)=C\C=C\[C@H](C)[C@H](O)[C@@H](C)[C@@H](O)[C@@H](C)[C@H](OC(C)=O)[C@@H]1C [MT-901, Rifampicin] | – | – | – | Cuffdiff log2fc, CYP2C19 (hepatocytes): 1.75
5 | BMP2 (protein, UniProt P12643 283-396, looked up) Bone morphogenetic protein 2: QAKHKQRKRLKSSCKRHPLYVDFSDVGWNDWIVAPPGYHAFYCHGECPFPLADHLNSTNHAIVQTLVNSVNSKIPKACCVPTELSAISMLYLDENEKVVLKNYQDMVVEGCGCR | significantly (p-value≤0.05) modulate | – | – | Number (#) of genes having significantly changed expression ([2]; pilot RNA-seq study of Example 2, significance: FPKM≥0.5, log 2(fold change)≥1, q-value ≤0.05): 5

— patent US20210254056A1, “IDENTIFICATION AND TARGETED MODULATION OF GENE SIGNALING NETWORKS” (CAMP4 THERAPEUTICS CORPORATION, priority 2017, published 2021)
